EPAC1 ag: activates human EPAC1 exchange factor | Potency, µM (top dose mostly 154 µM), actives largely listed as activators | EPAC1 agonist qHTS, biochemical assay; response scale: 100% = response to 6.5 mM cAMP | O95398 | 0.073% of 360,000 active; also: nearly all actives have a fitted effect of over 60% in size
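Normalized to 6.5 mM cAMP, activity reflects EPAC1-catalysed release of BODIPY-GDP from Rap1B, followed kinetically over 30 min at 480 nm excitation, 540 nm emission. Reaction contained 100 nM EPAC1, 250 nM Rap1B-BODIPY-GDP, 50 uM GDP.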
Rango-impB inh: Rango-importin beta binding inhibition; Q14974; Rango CFP/YFP FRET sensor + importin beta, 45 min; Potency, µM (doses to about 92.2 µM); 0.031% of 340,000 active; AID 540263; calls by dose curve; also: nearly all actives have a fitted effect of over 15% in size
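FRET biosensor Rango (snurportin 1 IBB between N-terminal EYFP and C-terminal Cerulean), 50 nM in PBS/1 mM DTT/0.02% Tween-20/0.1% BSA, preincubated 5 min RT with compound; 0.125 microM importin beta added, 45 min RT, CFP/YFP FRET ratio read.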
EPAC2 antag: antagonists of human EPAC2; 0.18% of 360,000 active; EPAC2 GEF exchange of Rap1B-BODIPY-GDP, fluorescence; Potency, µM (titrated, usually from 114 µM), actives largely listed as inhibitors; Q8WZA2; AID 720708; also: nearly all actives have a fitted effect of over 45% in size
Rango release inh: inhibition of RanGTP-driven Rango-importin beta dissociation | O95149+P62826 | Biochemical FRET Rango-importin beta, RanGTP-induced dissociation | Potency, µM (titrated, usually from 46.1 µM) | 0.071% of 340,000 active; calls by dose curve; also: nearly all actives have a fitted effect of over 45% in size
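FRET read at 45 min, room temperature: inhibitors block the CFP/YFP signal rise when RanGTP (0.6 uM Ran, 2 mM GTP, 0.2 uM RCC1) frees Rango (0.1 uM) from importin beta (0.25 uM). Pre-read after 5 min compound exposure flags interference.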
EPAC2 ag: activates human EPAC2 exchange factor | Q8WZA2 | Potency, µM (titrated, usually from 154 µM), usual class: activators | AID 720711 | 0.079% of 360,000 active | EPAC2 activation, biochemical qHTS; response scale: 100% = 6.5 mM cAMP response; also: nearly all actives have a fitted effect of over 50% in size
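Exchange assay: 100 nM EPAC2 with 250 nM Rap1B-BODIPY-GDP and 50 uM GDP. Fluorescence (ex 480/em 540 nm) read every 5 min for 30 min at room temperature. Data normalized to 6.5 mM cAMP as agonist control.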
EPAC1 antagonist: EPAC1 (human) antagonism. EPAC1 GEF assay, Rap1b-BODIPY-GDP exchange fluorescence. Potency, µM (titrated, usually from 115 µM), most hits filed as inhibitors. 0.14% of 360,000 active; also: nearly all actives have a fitted effect of over 50% in size
Each line names hits and unclear results; the compound was inactive in the other large screens; [ ] = dose if it differs, or a comment. In the library only some 0.48% were active in any assay of this set; here they are far more common. Unless noted, calls follow the shape of the dose curve; as a rule, active = well fitted curve in the direction sought with a large enough effect; inconclusive = small, poorly fitted or top-dose-only effect, or another doubt; inactive = no such curve, though single readings can be large; an effect the other way counts as inactive or inconclusive.

CN1/C(=C/C(=S)NC(=O)C2(C)CC2(Cl)Cl)C(C)(C)c2ccccc21 (stereo unspecified)	Rango-impB inh inconclusive, Rango release inh 0.52µM[inhibitor]
CC(C)Nc1ncnc2c1ncn2[C@H]1CN(CCN2CCOCC2)C[C@@H](CO)O1	none (no result: Rango-impB inh, Rango release inh)
COc1ccc2ccccc2c1C(O)c1nccn1C (stereo unspecified)	EPAC1 ag 63µM, Rango-impB inh inconclusive, Rango release inh inconclusive, EPAC2 ag 100µM
COC(=O)C1=CN(c2cccc(OCc3ccccc3)c2)C(N)=C(C#N)C1c1cccc(OC)c1OC (stereo unspecified)	none (no result: Rango-impB inh, Rango release inh)
COc1cc(/C=C2/C(=N)N3C(=NC2=O)SN=C3S(=O)(=O)C(C)C)ccc1OC(=O)c1ccco1	Rango-impB inh inconclusive, Rango release inh 8.2µM
O=C(Nc1cccc(O)c1)c1ccc2c(c1)C(=O)N(Cc1ccco1)C2=O	none
O=C(Nc1ccc(Cl)cc1C(=O)O)c1ccc2c(c1)C(=O)N(Cc1ccco1)C2=O	EPAC2 antag inconclusive, EPAC1 antagonist 79µM
Cn1c(=O)c(N)c2c3c(c(Br)ccc31)C(=O)c1ccccc1-2	EPAC1 ag 112µM, Rango-impB inh inconclusive, Rango release inh inconclusive, EPAC2 ag inconclusive
Cc1ccc(C2=NC(=O)/C(=C/c3cc(O)c(O)c(Br)c3)S2)cc1	Rango-impB inh inconclusive, Rango release inh inconclusive, EPAC1 antagonist 10µM
Cc1cc(C)c(C(=O)c2cccs2)c(C)c1	EPAC2 antag 28µM
Cc1cc(C(=O)c2cccs2)c(N)s1	none
COCCCNC(=O)C[C@@H]1C[C@@]2(C(=O)OC)CC(C)(C)CC=C2N(Cc2ccccc2)C1=O	none (no result: Rango-impB inh, Rango release inh)
CN1CCS/C1=C/C=C1/SC(=S)N(Cc2ccccc2)C1=O	Rango-impB inh inconclusive
O=C(O)CN1C(=O)/C(=C/c2ccc(N3CCCCC3)o2)SC1=S	Rango-impB inh inconclusive, Rango release inh inconclusive
CN1CCS/C1=C/C=C1\SC(=S)N(CC(=O)O)C1=O	EPAC1 ag inconclusive, Rango-impB inh 58µM, EPAC2 antag inconclusive, Rango release inh inconclusive
CCCCN1C(=O)/C(=C/C=C2\SCCN2C)SC1=S	Rango-impB inh 52µM
O=C(COC(=O)c1cccc(F)c1)Nc1cccc(S(=O)(=O)N2CCCCC2)c1	none (no result: Rango-impB inh, Rango release inh)
CCCCNC(=O)c1nc(-c2cc3ccccc3[nH]2)oc1-c1ccccc1	none (no result: Rango-impB inh, Rango release inh)
COc1ccc(OC)c(/C=C/c2nc3ccccc3[nH]c2=O)c1	EPAC1 ag 89µM, Rango-impB inh inconclusive, Rango release inh inconclusive, EPAC2 ag inconclusive
O=C(Nc1ccc2c(c1)OCCO2)C(c1ccccc1)n1c(=O)c(-c2cc3ccccc3[nH]2)nc2ccccc21 (stereo unspecified)	none (no result: Rango-impB inh, Rango release inh)
CC(C)/C=C1\CC/C(=C\c2ccc(N(C)C)cc2)C1=O	Rango-impB inh inconclusive, Rango release inh inconclusive
CN(C)c1ccc(/C=C2/C[N+](C)(C)C/C(=C/c3ccc(N(C)C)cc3)C2=O)cc1	Rango-impB inh inconclusive, EPAC2 antag inconclusive, Rango release inh 16µM, EPAC1 antagonist inconclusive
O=C(CSc1cn(Cc2ccccc2)c2ccccc12)N1CCOCC1	none
Cc1ccc(Cn2cc(CN3CC(N4CCN(Cc5ccccc5F)CC4)CS3(=O)=O)nn2)cc1 (stereo unspecified)	none (no result: Rango-impB inh, Rango release inh)
O=C1NNC(c2ccccc2)=N/C1=C\c1ccco1	Rango-impB inh inconclusive
O=C1NNC(c2ccccc2)=N/C1=C\c1ccccc1Cl	EPAC2 antag inconclusive, EPAC1 antagonist 40µM
CC1CC(C)CN(S(=O)(=O)c2ccc3c(c2)CCN3C(=O)CCC(=O)O)C1 (stereo unspecified)	none
Cc1cccc(N2CCN(S(=O)(=O)c3ccc4c(c3)CCN4C(=O)CCC(=O)O)CC2C)c1 (stereo unspecified)	EPAC1 ag 56µM, EPAC1 antagonist 20µM
CCOC(=O)[C@]12CCCC=C1N(Cc1cccc3ccccc13)C(=O)[C@H](CC(=O)NCc1cccs1)C2	EPAC1 antagonist inconclusive (no result: Rango-impB inh, Rango release inh)
COc1cc(-c2c(CCO)sc3ccccc23)cc(OC)c1OC	EPAC2 antag 47µM (no result: Rango-impB inh, Rango release inh)
Cc1[nH]c(=O)nc(NN=Cc2ccc(Cl)cc2)c1C(=O)Nc1ccc(Cl)cc1	EPAC2 ag 32µM
CCN(C(=O)COC(=O)CSc1ccc(F)cc1)c1c(N)n(Cc2ccccc2)c(=O)[nH]c1=O	none
CCCN(CCC)C(=O)Cn1c(=O)c2ccccc2n2c(=S)sc(-c3ccccc3C)c12	none
CCCN(CCC)C(=O)Cn1c(=O)c2sccc2n2c(=S)sc(-c3ccccc3)c12	EPAC2 antag 50µM
CC(NC(=O)/C(C#N)=C/c1ccc(N2CCOCC2)cc1)c1ccccc1 (stereo unspecified)	EPAC1 ag 89µM, Rango-impB inh inconclusive, Rango release inh inconclusive, EPAC2 ag inconclusive
COCCOC(=O)c1c(NC(=O)CN2CCCc3ccccc32)sc(C(N)=O)c1C	none
COC(=O)c1[nH]c2cc(C)ccc2c1NC(=O)CN1CCCc2ccccc21	EPAC2 ag 7.9µM
COC(=O)c1[nH]c2ccc(Br)cc2c1NC(=O)CN1CCCc2ccccc21	none
c1ccc(-c2cnnc3ccccc23)cc1	none
CCOC(=O)[C@]12CCCC=C1N(Cc1ccccc1)C(=O)[C@H](CC(=O)NCCCN1CCCC1=O)C2	none (no result: Rango-impB inh, Rango release inh)
CCN(CC)C1=CC2=CC(=C(C#N)C#N)CCC2CC1 (stereo unspecified)	EPAC1 ag inconclusive, Rango-impB inh inconclusive, Rango release inh inconclusive, EPAC2 ag 100µM
CNc1sc(C(=O)c2cccs2)c(N)c1-c1nc2ccccc2s1	Rango-impB inh inconclusive, Rango release inh 10µM
COc1ccccc1Oc1ncnc2c1oc1ccccc12	EPAC2 antag 79µM
CN(C)/C=C1\NC(=S)N(c2ccccc2)C1=O	none
COc1ccc(N2C(=O)/C(=C/c3cccs3)NC2=S)cc1	Rango-impB inh inconclusive, Rango release inh 16µM[inhibitor]
C=CCN1C(=O)/C(=C/c2ccc(OCC(=O)O)cc2)S/C1=N/c1nccs1	Rango-impB inh inconclusive, EPAC2 antag 50µM
CCCC(=O)N1CCc2cc(OC)c(OC)cc2C1COc1ccccc1OC (stereo unspecified)	none
CCC(=O)N1CCc2cc(OC)c(OC)cc2C1COc1ccccc1OC (stereo unspecified)	EPAC2 antag 45µM
CCC(=O)N1CCc2cc(OC)c(OC)cc2C1COc1ccc(F)cc1 (stereo unspecified)	EPAC2 antag 14µM
Cc1ccc(NC(=O)Nc2nnc([C@H]3C[C@H](O)[C@@H](CO)O3)s2)cc1	none (no result: Rango-impB inh, Rango release inh)
Fc1ccc(/C=C\c2nccc3c2[nH]c2ccccc23)cc1	Rango-impB inh inconclusive, Rango release inh inconclusive

Assay outcomes (PubChem)
